From the NIST ThermoML archive (doi:10.1016/j.fluid.2005.06.017)
± gives the expanded uncertainty stated by the source.

Conditions: 373.15 K; Liquid; Ebulliometric method (Recirculating still)

vapor or sublimation pressure: 28.4 ± 3 kPa
Structure (SMILES): CCCCOCCCC [dibutyl ether]
